Results from US6608082B1, “Treatment of erectile dysfunction using isoquinoline compound melanocortin receptor ligands” (Lion Bioscience AG, priority 1998, dated 2003).
pIC50: −log10 of the molar value.

The chains behind the UniProt entries cited, without tags or fusion partners.
UniProt P33032, whole entry: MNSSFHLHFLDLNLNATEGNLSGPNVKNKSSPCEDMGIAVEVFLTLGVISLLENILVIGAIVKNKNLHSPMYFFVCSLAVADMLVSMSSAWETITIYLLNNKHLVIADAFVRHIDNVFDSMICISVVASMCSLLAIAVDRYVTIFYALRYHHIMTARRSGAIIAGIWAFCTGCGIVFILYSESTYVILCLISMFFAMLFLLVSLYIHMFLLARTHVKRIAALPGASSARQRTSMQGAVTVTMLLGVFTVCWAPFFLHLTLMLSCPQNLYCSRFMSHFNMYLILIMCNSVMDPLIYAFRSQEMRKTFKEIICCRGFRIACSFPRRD
UniProt P41968, whole entry: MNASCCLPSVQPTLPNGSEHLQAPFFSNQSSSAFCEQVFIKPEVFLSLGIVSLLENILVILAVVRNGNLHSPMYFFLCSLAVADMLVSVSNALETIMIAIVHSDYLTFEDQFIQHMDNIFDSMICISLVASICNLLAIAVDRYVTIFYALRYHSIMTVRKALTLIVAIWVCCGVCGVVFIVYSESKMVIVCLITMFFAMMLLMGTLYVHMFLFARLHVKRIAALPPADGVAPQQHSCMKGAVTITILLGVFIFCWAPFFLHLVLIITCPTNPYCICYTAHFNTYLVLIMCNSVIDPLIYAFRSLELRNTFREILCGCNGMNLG

What was measured:
MCR-5 = MCR-5 (Homo sapiens, UniProt P33032); assay: Melanocortin receptor binding assay, competition with 125I-HP 467, HEK 293 cells expressing hMCR-5; details: read-out: MC-5 IC50; binding to MCR-5, HEK 293 cells
Excerpt: (§1) All cell culture media and reagents were obtained from GibcoBRL (Gaithersburg Md.), except for COSMIC CALF SERUM (HyClone; Logan Utah). HEK-293 cell lines were transfected with the human MC receptors hMCR-1, hMCR-3, and hMCR-4 (Gantz et al., Biochem. Biophys. Res. Comm. 200:1214-1220 (1994); Gantz et al., J. Biol. Chem. 268:8246-8250 (1993); Gantz et al. J. Biol. Chem. 268:15174-15179 (1993); Haskell-Leuvano et al., Biochem. Biophys. Res. Comm. 204:1137-1142 (1994); each of which is incorporated herein by reference). […]
(§2) GF/B filter plates were prepared by soaking for at least one hour in 5 mg/ml BSA and 10 mM CaCl2. […] Filter plates were counted using a Packard Topcount (Packard Instrument Co.) and data analyzed using GraphPad PRISM v2.0 (GraphPad Software Inc.; San Diego Calif.) and Microsoft EXCEL v5.0a (Microsoft Corp.; Redmond Wash.).
(§3) To assay isoquinoline compounds, binding assays were performed in duplicate in a 96 well format. […] Cells were harvested on GF/B filter plates as described above and counted. […]

MCR-3 = MCR-3 (Homo sapiens, UniProt P41968); assay: Melanocortin receptor binding assay, competition with 125I-HP 467, HEK 293 cells expressing hMCR-3; details: read-out: MC-3 IC50; binding to MCR-3, HEK 293 cells
Excerpt: as §1, §2, §3

SMILES: CCNc1ccc(C2C(CNCc3ccccc3O)c3ccccc3CN2CCCC[C@@H](CN)NC)cc1 (some centres unmarked)
- pIC50 (MCR-5): < 5.00
- pIC50 (MCR-3): < 5.00
